B1: Shugoshin 1 (Homo sapiens), Q5FBB7 (parent)
chain: MAKERCLKKSFQDSLEDIKKRMKEKRNKNLAEIGKRRSFIAAPCQIITNTSTLLKNYQDNNKMLVLALENEKSKVKEAQDIILQLRKECYYLTCQLYALKGKLTSQQTVEPAQNQEICSSGMDPNSDDSSRNLFVKDLPQIPLEETELPGQGESFQIEDQIPTIPQDTLGVDFDSGEAKSTDNVLPRTVSVRSSLKKHCNSICQFDSLDDFETSHLAGKSFEFERVGFLDPLVNMHIPENVQHNACQWSKDQVNLSPKLIQPGTFTKTKEDILESKSEQTKSKQRDTQERKREEKRKANRRKSKRMSKYKENKSENKKTVPQKKMHKSVSSNDAYNFNLEEGVHLTPFRQKVSNDSNREENNESEVSLCESSGSGDDSDDLYLPTCKYIQNPTSNSDRPVTRPLAKRALKYTDEKETEGSKPTKTPTTTPPETQQSPHLSLKDITNVSLYPVVKIRRLSLSPKKNKASPAVALPKRRCTASVNYKEPTLASKLRRGDPFTDLCFLNSPIFKQKKDLRRSKKRALEVSPAKEAIFILYYVREFVSRFPDCRKCKLETHICLR

Variants of: B1
Details: with cbx5_human CBX5
For MAKERCLKKSFQDSLEDIKKRMKEKRNKNLAEIGKRRSFIAAPCQIITNTSTLLKNYQDNNKMLVLALENEKSKVKEAQDIILQLRKECYYLTCQLYALKGKLTSQQTVEPAQNQEICSSGMDPNSDDSSRNLFVKDLPQIPLEETELPGQGESFQIEDQIPTIPQDTLGVDFDSGEAKSTDNVLPRTVSVRSSLKKHCNSICQFDSLDDFETSHLAGKSFEFERVGFLDPLVNMHIPENVQHNACQWSKDQVNLSPKLIQPGTFTKTKEDILESKSEQTKSKQRDTQERKREEKRKANRRKSKRMSKYKENKSENKKTVPQKKMHKSVSSNDAYNFNLEEGVHLTPFRQKVSNDSNREENNESEVSLCESSGSGDDSDDLYLPTCKYIQNPTSNSDRPVTRPLAKRALKYTDEKETEGSKPTKTPTTTPPETQQSPHLSLKDITNVSLYPVVKIRRLSLSPKKNKASAAAAAPKRRCTASVNYKEPTLASKLRRGDPFTDLCFLNSPIFKQKKDLRRSKKRALEVSPAKEAIFILYYVREFVSRFPDCRKCKLETHICLR [P469A;V471A;L473A], the “effect of a mutation on the interaction” value was “with no effect”. MAKERCLKKSFQDSLEDIKKRMKEKRNKNLAEIGKRRSFIAAPCQIITNTSTLLKNYQDNNKMLVLALENEKSKVKEAQDIILQLRKECYYLTCQLYALKGKLTSQQTVEPAQNQEICSSGMDPNSDDSSRNLFVKDLPQIPLEETELPGQGESFQIEDQIPTIPQDTLGVDFDSGEAKSTDNVLPRTVSVRSSLKKHCNSICQFDSLDDFETSHLAGKSFEFERVGFLDPLVNMHIPENVQHNACQWSKDQVNLSPKLIQPGTFTKTKEDILESKSEQTKSKQRDTQERKREEKRKANRRKSKRMSKYKENKSENKKTVPQKKMHKSVSSNDAYNFNLEEGVHLTPFRQKVSNDSNREENNESEVSLCESSGSGDDSDDLYLPTCKYIQNPTSNSDRPVTRPLAKRALKYTDEKETEGSKPTKTPTTTPPETQQSPHLSLKDITNVSLYAVAKARRLSLSPKKNKASPAVALPKRRCTASVNYKEPTLASKLRRGDPFTDLCFLNSPIFKQKKDLRRSKKRALEVSPAKEAIFILYYVREFVSRFPDCRKCKLETHICLR [P451A;V453A;I455A] was tested, and the “effect of a mutation on the interaction” value was “disrupting interaction strength”.
